Measured values taken from article PMC9610285, “Polymorphism of Drug Transporters, Rather Than Metabolizing Enzymes, Conditions the Pharmacokinetics of Rasagiline” (Pharmaceutics, 2022).
Where two headings read alike, the source gives them in different places.

Details: 1 mg single oral dose, fasting
Description: The data used in this work were obtained from four bioequivalence clinical trials conducted at the Clinical Trials Unit of the Hospital Universitario de La Princesa (UECHUP) (EUDRA-CT IDs: 2012-004433-17, 2013-002159-14, 2014-001123-77 and 2021-000315-23). […] The reference formulation (R) in all cases was Azilect® 1 mg tablets (TEVA Pharmaceuticals Europe B.V.), which was compared against different test formulations (T), all of them 1 mg tablets, except in clinical trial 3, whose test formulation was orodispersible 1 mg. The four bioequivalence trials had two periods and two sequences (TR and RT). In the first period, the volunteers randomly were administered one of the two formulations and, in the following period, after a 7-day washout period, the opposite formulation. All of them were reviewed and approved by Independent Ethics Board (IEB) of the Hospital Universitario de La Princesa, and by the Spanish Drug Agency (AEMPS). In addition, they were performed in accordance with the guidelines of the International Conference on Harmonization for Good Clinical Practice (ICH-GCP), current Spanish legislation and the Revised Declaration of Helsinki. The pharmacogenetic study (SFC-FG-2020-1) was likewise approved by the IEB of Hospital Universitario de La Princesa (registry number 4176, 9 July 2020).
In each period, the drug was administered under fasting conditions, which were maintained until 5 h after drug administration. Each subject provided 20 or 21 blood samples (depending on the clinical trial) that were extracted by BD Vacutainer® vacuum system with EDTA K2 tubes for analysis at different times between 0 h (before receiving the drug) and up to 12 h after drug intake. […] A high-performance liquid chromatography coupled to triple quadrupole mass spectrometry (HPLC-MS/MS) analytical method was used. The latter was validated according to European regulations for bioequivalence assessment, with a lower limit of quantification (LLOQ) of 10 pg/mL and a calibration range of 10–10,000 pg/mL.
Pharmacokinetic parameters were calculated with WinNonlin Professional (Scientific Consulting, Inc., Cary, NC, USA) following a non-compartmental model. The area under the curve (AUC0-t), was obtained by the trapezoidal method. The extrapolation to infinity (AUC0-∞) was determined by the sum of two partial AUCs: AUCt-∞ calculated by the ratio Ct/k, where Ct is the last detectable concentration and k the elimination slope; plus AUC0-t. Cmax and tmax were directly obtained from the plasma time-concentration curves. t1/2 was calculated as Ln2/k. Plasma clearance adjusted for bioavailability (Cl/F) was calculated as dose/AUC. Finally, the volume of distribution adjusted for bioavailability (Vd/F) was calculated by dividing Cl/F by k.
The SPSS software (v23.0, SPSS Inc., Chicago, IL, USA) was used for statistical analyses. AUC0-∞, and Cmax were divided by the dose/weight (DW) ratio to correct sex-related variability related to a varying weight. For the same purpose, Vd/F and Cl/F were divided by weight. With the purpose of normalizing their distributions, all pharmacokinetic parameters were logarithmically transformed for statistical analysis. Initially, a univariate analysis was conducted of the demographic characteristics according to sex and ethnicity, and of the pharmacokinetic parameters or ADR incidence based on sex, biogeographical group (hereinafter, “ethnicity”), genotypes and phenotypes.

In the case of `C#CCN[C@@H]1CCc2ccccc21` [rasagiline, Rasagiline], the Vd/F (ABCB1 rs1045642 A/A, n=23) is reported as 13.89 ± 3.87 L/kg, the Vd/F (ABCB1 rs1045642 G/A, n=61) is reported as 14.71 ± 6.41 L/kg and the Vd/F (ABCB1 rs1045642 G/G, n=34) is reported as 17.59 ± 5.97 (pu = 0.018, pm = 0.001) ^$ L/kg. It also gave a Vd/F (ABCC2 rs2273697 A/A, n=3) of 12.72 ± 2.28 L/kg, a Vd/F (ABCC2 rs2273697 G/A, n=42) of 14.95 ± 6.30 L/kg and a Vd/F (ABCC2 rs2273697 G/G, n=73) of 15.73 ± 5.94 L/kg. The Vd/F (COMT rs4680 A/A, n=26) was 17.45 ± 6.66 (pm=0.027) L/kg, the Vd/F (COMT rs4680 G/A, n=56) was 14.40 ± 6.06 L/kg and the Vd/F (COMT rs4680 G/G, n=36) was 15.39 ± 5.13 L/kg. The Vd/F (CYP1A2 *1B/*1B, n=6) was 11.98 ± 3.33 L/kg, the Vd/F (CYP1A2 *1B/*1F, n=36) was 15.24 ± 5.73 L/kg and the Vd/F (CYP1A2 *1B/*1L, n=4) was 18.28 ± 7.57 L/kg. For the same molecule, the Vd/F (CYP1A2 *1B/*1N, n=5) was 19.45 ± 9.55 L/kg, the Vd/F (CYP1A2 *1F/*1F, n=38) was 15.32 ± 5.34 L/kg and the Vd/F (CYP1A2 *1J/*1N, n=5) was 11.59 ± 3.81 L/kg. The Vd/F (CYP1A2 *1L/*1F, n=11) was 13.05 ± 4.16 L/kg, the Vd/F (CYP1A2 *1L/*1L, n=6) was 15.94 ± 5.55 L/kg and the Vd/F (CYP1A2 *1N/*1K, *1N/*1L, *1N/*1L and *1N/*1G merged, n=4) was 22.89 ± 12.33 L/kg. It also gave a Vd/F (CYP2C19 µM, n=3) of 15.39 ± 12.27 L/kg, a Vd/F (CYP2C19 IM, n=36) of 16.62 ± 5.25 L/kg and a Vd/F (CYP2C19 NM, n=56) of 15.07 ± 5.84 L/kg. For the same molecule, the Vd/F (CYP2C19 PM, n=2) was 7.33 ± 1.58 L/kg, the Vd/F (CYP2C19 RM, n=21) was 14.82 ± 6.62 L/kg and the Vd/F (Caucasian, n=83) was 15.00 ± 5.72 L/kg. The Vd/F (Men, n=53) was 12.18 ± 3.78 *^& L/kg, the Vd/F (Mixed ethnicity, n=35) was 16.27 ± 6.62 L/kg and the Vd/F (NAT2 RA, n=9) was 17.96 ± 5.87 L/kg. The Vd/F (NAT2 SA, n=103) was 15.07 ± 6.05 L/kg, the Vd/F (SLC22A1*3 (rs12208357) *1/*1, n=104) was 15.52 ± 6.05 L/kg and the Vd/F (SLC22A1*3 (rs12208357) *1/*3, n=8) was 12.35 ± 3.96 L/kg. It also gave a Vd/F (SLC22A1*5 (rs34059508) *1/*1, n=113) of 15.38 ± 6.07 L/kg, a Vd/F (Total with CYP1A2 diplotype, n=115) of 15.32 ± 6.06 L/kg and a Vd/F (Total, n=118) of 15.38 ± 6.00 L/kg. The Vd/F (UGT1A6 rs7592281 G/G, n=111) was 15.25 ± 5.93 L/kg, the Vd/F (UGT1A6 rs7592281 G/T, n=7) was 17.43 ± 7.29 L/kg and the Vd/F (Women, n=65) was 17.98 ± 6.23 L/kg.
